Patent publication US20110206604A1, “NITROIMIDAZOLE-AMINO ACID HYPOXIA CONTRAST MEDIUM, PREPARATION METHOD AND USE THEREOF” (priority 2008, published 2011)

Tested on: breast cancer cells
Settings: mice with breast cancer cells on the legs, γ-camera image after intravenous injection, panel or time point not given

Row | Substance | T/M (FIG. 13) | T/M (FIG. 12)
1 | ^99mTc L-aspartic acid [reference compound] | 2.2 and 1.5 | –
2 | ^99mTc L-aspartic acid-methyl-nitroimidazole | 4.3 and 4.1 | 4.3 and 3.7

Where “and” joins values, the source holds several entries; their conditions need not be identical. Equal values may be shown once. Read-outs that look alike come from different tables or passages of the source.
